Assay results from publication PMC6393897, “An LC-MS/MS Method for Simultaneous Determination of the Toxic and Active Components of Cortex Periplocae in Rat Plasma and Application to a Pharmacokinetic Study” (International Journal of Analytical Chemistry, 2019).

Assay: Pharmacokinetic study in rats after oral administration of cortex periplocae extract (plasma LC-MS/MS)
Conditions: rat, in vivo, male Sprague-Dawley rats, oral cortex periplocae extract 18.9 g/kg, n = 6, mean ± SD
Description: The pharmacokinetic study was conducted in accordance with the Guidelines for the Care and Use of Laboratory Animals and approved by the Animal Ethics Committee of Tianjin University of Traditional Chinese Medicine. […] Appropriate amount of cortex periplocae extract was suspended in 0.5% carboxymethyl cellulose sodium salt aqueous solution (CMC-Na) and the volume of oral administration was 1 mL/100g. […] The rats were anesthetized with ethyl ether before each withdrawal. […] For this repeat bleeds at short intervals, fluid replacement (appropriate volume of physiological saline) was required. The blood samples were immediately centrifuged 10 min at 7000 rpm. The obtained plasma was transferred into another centrifuge tube and stored at -80°C for analysis.
For the maximum drug concentration in plasma (Cmax) and the time to reach maximum drug concentration (Tmax), the values could be directly obtained. The other key parameters such as the area under the plasma concentration–time curve (AUC), elimination half-life (t1/2), and mean residence time (MRT) were calculated with DAS (Drug and Statistics 1.0, Medical College of Wannan, China) using non-compartmental model.

## C[C@]12CC[C@H](O)C[C@@]1(O)CC[C@@H]1[C@@H]2CC[C@]2(C)[C@@H](C3=CC(=O)OC3)CC[C@]12O [periplogenin]
0-48 h, read-out: AUC(0-tn)
  AUC: 207 ± 131 ng·h/mL
  AUC(0-inf): 446 ± 174 ng·h/mL
  Cmax: 14.5 ± 7.75 ng/mL
  Tmax: 5.78 ± 3.56 h
  half-life: 22.9 ± 17.3 h
read-out: MRT(0-tn)
  MRT: 19.1 ± 3.64 h
